Assay results reported in US8524716B2, “Macrocyclic indoles as hepatitis C virus inhibitors” (priority 2007, dated 2013).

Amino acid sequences for entries named in this document (tags omitted). Residues count along the entry.
UniProt O92972, 2420-3010 limits assumed: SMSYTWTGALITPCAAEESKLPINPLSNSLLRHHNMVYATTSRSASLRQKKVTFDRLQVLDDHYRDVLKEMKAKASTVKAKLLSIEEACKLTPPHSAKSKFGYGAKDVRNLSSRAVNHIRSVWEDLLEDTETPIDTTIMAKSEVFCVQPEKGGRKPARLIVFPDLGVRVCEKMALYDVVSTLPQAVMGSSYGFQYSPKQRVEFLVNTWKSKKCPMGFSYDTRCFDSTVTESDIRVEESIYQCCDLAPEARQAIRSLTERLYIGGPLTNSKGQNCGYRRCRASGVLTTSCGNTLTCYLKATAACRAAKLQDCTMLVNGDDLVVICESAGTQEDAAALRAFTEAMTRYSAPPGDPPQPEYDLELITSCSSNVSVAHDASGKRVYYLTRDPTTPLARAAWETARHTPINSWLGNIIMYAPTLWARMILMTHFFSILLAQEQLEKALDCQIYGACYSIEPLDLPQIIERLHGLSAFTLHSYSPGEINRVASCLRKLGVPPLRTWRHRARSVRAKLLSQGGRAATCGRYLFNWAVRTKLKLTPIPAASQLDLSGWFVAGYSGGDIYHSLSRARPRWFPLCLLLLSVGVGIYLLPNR

Molecular target: HCV NS5B (Hepatitis C virus genotype 1b (strain HC-J4), UniProt O92972)
Format: biochemical
Conditions: 100 nM enzyme, [3H]GTP incorporation, 2 h at 25° C.; read-out: IC50 (μM) Enzymatic assay
Procedure: The cDNA encoding NS5B amino acid 1-570 (HC-J4, genotype 1b, pCV-J4L6S, genebank accession number AF054247) was subcloned into the Nhe I and Xho I restriction sites of pET-21b. Expression of the subsequent His-tagged C-terminal 21 amino acid deleted NS5B was performed as follows:
The NS5B expression construct was transformed into E. coli BL21(DE3) (Novagen, Madison, Wis.). Five milliliters of LB-medium supplemented with ampicillin (50 μg/mL) was inoculated with one colony. When the pre-culture reached an optical density of 0.6 measured at 600 nm, it was transferred to fresh LB-medium supplemented with ampicillin, at a ratio of 1:200. Cells were grown to an optical density at 600 nm of 0.6, after which the expression cultures were shifted to a growth temperature of 20° C. following induction with isopropyl-1-thio-β-D-galactopyranoside and MgCl2 at a final concentration of 0.4 mM and 10 μM, respectively. […]
Clarified cell lysate was thawed and subsequently loaded onto a 5 mL pre-packed HisTrap FF column equilibrated with 25 mM HEPES, pH 7.5, 500 mM NaCl, 10% glycerol and 5 mM DTT. […] Protein purity was assessed on Nu-PAGE pre-cast gels (Invitrogen, Carlsbad, Calif.). Purified NS5B samples were concentrated using Centri-Prep concentrators (Millipore, Billerica, Mass., USA) and protein concentrations were determined by Bradford assay (Pierce, Rockford, Ill., USA). […]

| Compound | IC50 [µM] |
| --- | --- |
| CN1CCCCCNC(=O)Cn2c(-c3ccoc3)c(C3CCCCC3)c3ccc(cc32)C(=O)NS1(=O)=O [Cpd 30, 18-Cyclohexyl-19-furan-3-yl-10-methyl-11,11-dioxo-11λ^6-thia-1,4,10,12-tetraaza-tricyclo[12.5.2.017,20]henicosa-14(21),15,17(20),18-tetraene-3,13-dione] | 0.11 |
| 17-Cyclohexyl-18-furan-3-yl-9-methyl-10,10-dioxo-10λ^6-thia-1,4,9,11-tetraaza-tricyclo[11.5.2.016,19]icosa-13(20),14,16(19),17-tetraene-3,12-dione [Cpd 28] | 0.11 |
